In patent publication EP2660249B1:

Target: GLP-1R (glucagon-like peptide-1 receptor) of mouse pancreatic islets (mouse) (UniProt O35659)
Test: competition radioligand binding on mouse pancreatic islet cells; displacement of [125I] Bolton-Hunter labeled Exendin(9-39); filter separation, gamma counter

Row | Substance | IC50 [nM]
1 | (^127IB-PEG3)12-Ex4 (formula (33), SEQ ID NO. 33) (peptide) | 2.6
2 | (^127IB-PEG3)40-Ex4 (formula (34), SEQ ID NO. 34) (peptide) | 2.7
